Where only a bound is given, the exact number is not on record here.

Assay [1] deals with ERBB2-positive breast cancers. Conditions: cited from earlier work.
For assay [2], the system named is panel of 55 breast cancer cell lines. As to the kind of experiment: Cell growth inhibition assay (Cell Titer Glo, 72 h, 9 doses; GI50, TGI, LC50). It is filed as cell-based, human. Conditions: across the cell line panel.

As for trastuzumab, in assay [1] (Phase I clinical trials, patients with HER2-overexpressing tumors), the “clinical effect with co-administration of IL-12” value is “potentiated by the co-administration of IL-12”. Also, the “patients achieving any therapeutic benefit” value in assay [1] (patients with ERBB2-positive breast cancers) is recorded as less than 50%.

Take cetuximab: in assay [2], the “variability in cell line response” value was “variability in cell line response was minimal”.

These data come from patent US10770169B2, “Method of providing a treatment to a subject based on a dynamic pathway map” (THE REGENTS OF THE UNIVERSITY OF CALIFORNIA, priority 2010, dated 2020).
